The text below walks through data of PubChem BioAssay AID2676 (National Center for Advancing Translational Sciences (NCATS), 2010).

Sequences of proteins named here, by UniProt entry; tags and fusion partners are left off. A change or cut given only in a name is not applied to a line headed by its entry.
UniProt Q9HBX9: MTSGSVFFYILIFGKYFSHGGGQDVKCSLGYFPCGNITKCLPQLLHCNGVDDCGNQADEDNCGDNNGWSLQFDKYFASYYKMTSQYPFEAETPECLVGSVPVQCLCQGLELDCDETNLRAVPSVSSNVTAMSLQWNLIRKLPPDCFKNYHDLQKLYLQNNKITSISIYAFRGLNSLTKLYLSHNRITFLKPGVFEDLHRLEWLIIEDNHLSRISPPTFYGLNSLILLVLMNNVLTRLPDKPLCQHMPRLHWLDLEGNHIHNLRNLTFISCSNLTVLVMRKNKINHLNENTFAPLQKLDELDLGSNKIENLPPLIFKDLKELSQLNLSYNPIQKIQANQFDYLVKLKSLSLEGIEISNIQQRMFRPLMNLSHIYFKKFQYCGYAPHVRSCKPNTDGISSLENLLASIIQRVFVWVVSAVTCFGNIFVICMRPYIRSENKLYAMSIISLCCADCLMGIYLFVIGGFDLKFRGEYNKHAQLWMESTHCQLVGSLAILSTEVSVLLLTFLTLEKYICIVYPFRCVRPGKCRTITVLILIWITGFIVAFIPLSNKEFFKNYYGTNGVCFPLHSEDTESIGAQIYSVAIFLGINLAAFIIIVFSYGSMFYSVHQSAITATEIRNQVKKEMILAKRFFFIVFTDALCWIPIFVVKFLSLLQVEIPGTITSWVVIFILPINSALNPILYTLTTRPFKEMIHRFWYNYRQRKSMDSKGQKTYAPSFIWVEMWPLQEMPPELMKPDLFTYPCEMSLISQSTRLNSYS

This is a selection; strong and weak results do not stand in their true shares. Calls of active or inactive are those of the source. Calls follow the shape of the dose curve; as a rule, active = well fitted activation curve with a large enough effect; inconclusive = small, poorly fitted or top-dose-only effect; inactive = flat fitted curve, though single readings scatter.
% is scaled to controls: 0 for no effect and ±100 for the full control effect.

For this experiment, the target named is Relaxin receptor 1 (Homo sapiens) (UniProt Q9HBX9). The experiment is described as follows: qHTS Assay for Agonists of the Relaxin Receptor RXFP1. Also: nearly all actives have a fitted effect of over 60% in size. Particulars: HEK293T-RXFP1 cAMP TR-FRET, 30 min, percent of porcine relaxin response, buffer zero; at 57.5 µM (top of the series). The text has this: NIH Chemical Genomics Center [NCGC] NIH Molecular Libraries Probe Production Centers Network [MLPCN] MLPCN Grant: R03 MH085705-01A1 Assay Submitter (PI): Alexander Agoulnik NCGC Assay Overview: The relaxin hormone is involved in the variety of biological functions in normal tissues and diseases. The role of relaxin is well-established in female reproduction and parturition, mammary gland and endometrial development, maintenance of myometrial quiescence during pregnancy. Relaxin signaling through its G protein-coupled receptor (GPCR) RXFP1 results in ECM remodeling through regulation of collagen deposition, cell invasiveness, proliferation and overall tissue homeostasis. […] Recombinant human relaxin (rhRlx) is currently being tested in clinical trials as a protective agent in congestive heart failure, in treating severe preeclampsia, and as an anti-fibrotic agent in systemic sclerosis. Upon relaxin binding RXFP1 activation leads to the activation of adenylate cyclase (AC) via Gs. cAMP will activate PKA, which phosphorylates many signaling proteins. Thus, detection of cAMP increase is an easy and reliable indication of relaxin receptor activation. To screen for agonists of the relaxin receptor, a HEK293T cell line stably transfected with RXFP1 was used. RXFP1 activation was assayed by changes in cAMP levels as detected with a time-resolved fluorescence energy transfer (TR-FRET) cAMP detection kit.
NCGC Assay Protocol Summary: This is a cell-based assay for cAMP second messenger response to screen for agonists of the RXFP1 receptor. The assay was conducted in the presence of a PDE4 inhibitor (Ro 20174). The cells were lysed and the cAMP levels were measured with a TR-FRET cAMP kit. Presence of cAMP in the cell lysate disrupts binding between the cryptate-labeled anti-cAMP and d2-labeled cAMP pair, leading to a decrease in the TR-FRET signal. Data were normalized to the controls for basal activity (buffer only) and 100% activity (29 nM porcine relaxin). The EC50 values were determined from concentration-response data modeled with the standard Hill equation 1536-well assay protocol for the HEK293 RXFP1 cAMP assay: (1) Add 3 ul HEK293 RXFP1 cell culture. 2000 cells/well in DMEM/F12, 10% FBS, 1x Pen/Strep (dispensed offline with MultiDrop Combi). (2) Incubate 16-24 hr at 37C, 5% CO2. (3) Add 1 ul 400uM Ro20174 in DPBS, 0.05% BSA, 0.005% Tween 20. (3) Add 23 nl compounds in DMSO solution. Final concentration was 0.5 - 58 uM. (4) Incubate 30 min at 37C, 5% CO2. (5) Add 1 ul cAMP-d2 in lysis buffer (HTRF cAMP HiRange kit, CisBio). (6) Add 1 ul anti-cAMP antibody-cryptate in lysis buffer (HTRF cAMP HiRange kit, CisBio). (7) Incubate 30 min at room temperature. (6) Detect the assay plate in a ViewLux plate reader (PerkinElmer) with Ex=320 nm, Em1=615 nm and Em2=665 nm. Keywords: relaxin, RXFP1, RXFP2, G-protein coupled receptor, cAMP, agonist, high throughput screening, MLSMR, MLSCN, NIH Roadmap, qHTS and NCGC
For `O=P(Nc1nccs1)(c1ccccc1)c1ccccc1`, the activation is inactive: -0.619%.

`CC(C)C(=O)NC(Sc1ccccc1)C(Cl)(Cl)Cl` (centres undefined): the activation was inactive: 1.28%.

On to `c1nnnn1CCn1cnnn1`, for which the activation was inactive: 0.352%.

For `CN(C)C1(CNC(=O)c2ccc(Cl)c(S(N)(=O)=O)c2)CCCCC1`, the activation is inactive: 4.04%.

As for `O=P(Nc1ccccn1)(c1ccc(Br)cc1)c1ccc(Br)cc1`, the activation is inactive: 1.9%.

On to `O=P(Nc1nc2ccccc2s1)(c1ccccc1)c1ccccc1`, for which the activation is inactive: -0.574%.

Take `C[C@H]1OP(=O)(Oc2ccccc2)[C@H](O)[C@H](O)[C@H]1N=[N+]=[N-]` (some centres undefined): the activation is inactive: 3.87%.

On to `O=[N+]([O-])c1ncn(CCn2cnc([N+](=O)[O-])n2)n1`, for which the activation is inactive: 0%.

In the case of `CC(=O)NC(SC(=S)N(C)C)C(Cl)(Cl)Cl` (centres undefined), the activation was inactive: 2.9%.

For `O=[N+]([O-])c1ccc(O)c(/C=N/Nc2ccc([N+](=O)[O-])cc2[N+](=O)[O-])c1`, the activation is inactive: 0.173%.

In the case of `O=[As](O)(c1ccccc1)c1ccc(O)cc1`, the activation was inactive: 2.37%.

In the case of `Nc1ccc([As](=O)(O)c2ccc([N+](=O)[O-])cc2)cc1`, the activation was inactive: -1.57%.

Consider `C(Cc1nn[nH]n1)Cc1nn[nH]n1`, for which the activation is inactive: -1.55%.

As to `O=C(NC1CCS(=O)(=O)C1)NP(=S)(Oc1ccccc1)Oc1ccccc1` (centres undefined), the activation is inactive: -0.543%.

With `CCNC(=S)/N=C(\N)N[N+](=O)[O-]`, the activation is inactive: -0.697%.

Regarding `c1ccc(-c2nn[nH]n2)c(-c2nn[nH]n2)c1`, the activation was inactive: -0.261%.

For the compound `CCOC(=O)NC(Sc1ccccc1)C(Cl)(Cl)Cl` (centres undefined), the activation was inactive: 1.49%.

Turning to `Cc1ccc(NP(=O)(Oc2cccc(C)c2)Oc2cccc(C)c2)nc1`, the activation is inactive: -4.61%.

Consider `COC(=O)c1cc2c(s1)N=C(c1ccccc1)N(C)P2(=O)N1CCOCC1` (centres undefined), for which the activation is inactive: 0.488%.

For the compound `Cc1ccc(OP(=O)(Nc2ccccn2)Oc2ccc(C)cc2)cc1`, the activation was inactive: 2.85%.

As to `CC(=O)NC(SC(=S)N(CC(C)C)CC(C)C)C(Cl)(Cl)Cl` (centres undefined), the activation is inactive: 0.781%.

For `O=C(OC1CN2CCC1CC2)c1ccccc1` (centres undefined), the activation was inactive: -1.84%.

With `CCC(=O)N1C2C3N(C(=O)CC)C1C1N(C(=O)CC)C(C(N1C(=O)CC)N3C(=O)CC)N2C(=O)CC`, the activation is inactive: -0.286%.

With `Cc1ccccc1OP(=O)(Nc1ccccn1)Oc1ccccc1C`, the activation was inactive: 1.54%.

`CN(C)C(=O)Oc1noc2ccccc12`: the activation was inactive: 2.61%.

On to `O=c1c2cc([N+](=O)[O-])ccc2[nH]c2c([N+](=O)[O-])cc([N+](=O)[O-])cc12`, for which the activation was inactive: 4.84%.

`O=P1(Nc2nc3ccc(Cl)cc3s2)COc2ccccc2O1` (centres undefined): the activation is inactive: -0.909%.

As to `CCOc1ccc(C2=NCC(CBr)S2)cc1` (centres undefined), the activation was inactive: -0.718%.

For the compound `CC(C)(C)C(=O)NC(Sc1ccccc1)C(Cl)(Cl)Cl` (centres undefined), the activation was inactive: -1.03%.

With `CC(=O)c1ccc(N2CC2c2ccncc2)cc1` (centres undefined), the activation was inactive: 4.75%.

Take `Cc1ccccc1CN(C)C(=O)COC(=O)C(O)(c1ccccc1)c1ccccc1`: the activation is inactive: 1.26%.

`C[C@@H]1C=CCP(=O)(Oc2ccccc2)O1` (some centres undefined): the activation is inactive: 0%.

In the case of `C[C@H]1OP(=O)(Oc2ccccc2)C[C@@H]2O[C@@H]21` (some centres undefined), the activation is inactive: -1.45%.

For the compound `CC(=O)Nc1ccc([As](=O)(O)O)c(O)c1`, the activation was inactive: -1.09%.

Regarding `CC(=O)Nc1ccc(Oc2c([N+](=O)[O-])cc([N+](=O)[O-])cc2[N+](=O)[O-])cc1`, the activation is inactive: -1.2%.

Turning to `NC(=O)c1cc([N+](=O)[O-])cc([N+](=O)[O-])c1N`, the activation is inactive: 0.635%.

As to `CN(C(=O)Cc1ccc(Cl)c(Cl)c1)[C@H]1CCCC[C@H]1N1CCCC1`, the activation was inactive: -1.26%.

`Cc1ccc(N/C(=N/P(=O)(N2CCOCC2)N2CCOCC2)N2CCOCC2)cc1`: the activation was inactive: 1.39%.

For the compound `COc1ccccc1OP(=O)(Nc1ccc(C)cn1)Oc1ccccc1OC`, the activation was inactive: 0.742%.

In the case of `Cc1ccc(OP(=O)(Nc2nccs2)Oc2ccc(C)cc2)cc1`, the activation was inactive: 1.75%.

On to `Clc1ccc(Cl)c(NC2=NCC(CBr)S2)c1` (centres undefined), for which the activation is inactive: -1.32%.

For `CN1CCCC(OC(=O)C(c2ccccc2)c2ccccc2)C1` (centres undefined), the activation was inactive: 0.575%.

For `CC(C)CC(=O)NC(Sc1ccc(Cl)cc1)C(Cl)(Cl)Cl` (centres undefined), the activation was inactive: -3.33%.

Regarding `Nc1cc(N)c2nonc2c1[N+](=O)[O-]`, the activation is inactive: 5.75%.

For the compound `Oc1ccccc1CNc1ccccn1`, the activation was inactive: 4.18%.

Take `Cc1c2non([O-])c-2c(C)[n+](=O)[n+]1[O-]`: the activation was inactive: 0.0133%.

With `O=C(NC(Sc1ccncn1)C(Cl)(Cl)Cl)c1ccccc1` (centres undefined), the activation was inactive: 1.64%.

Turning to `O=C(O)c1ccccc1[As](=O)(O)O`, the activation is inactive: 5.07%.

Regarding `CC(=O)Nc1ccc([As](=O)(O)O)cc1`, the activation was inactive: 2.06%.
